Literature values in patent publication EP1223952B1, “METHODS FOR TREATMENT OF SOLID TUMORS AND METASTASIS BY GENE THERAPY” (Aguilar-Cordova, Carlos, Estuardo, priority 1999, dated 2001).

Settings: in vivo

Elevation of SGOT (> 2 x normal): 5.4%
Elevation of alkaline phosphatase (>1.5 x normal): 5.4%
asthenia: 5.4%
decreased testicular size: 5.4%
dyspnea: 5.4%
edema: 12.5%
general pain: 7.1%
hot flashes/sweats: 58.9%
impotence: 5.4%
nausea/vomiting: 5.4%
Substance: leuprolide acetate [Lupron Depot]
